# Apparent affinities of Ab-14 variants for a coronavirus HR2 peptide

Target peptide (SARS-CoV-2 spike, HR2 region): PDVDLGDISGINAS

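Phage display of a naive human antibody library on the peptide gave the parent. This is the validation round: designs drawn from the data on random variants, tested in the same kind of assay. Several design methods are mixed in this list. AlphaSeq pools MATa yeast showing the antibodies with MATalpha yeast showing the peptide. The frequency of each diploid, read from paired DNA barcodes, reflects how well the two displayed proteins bind. Scores were corrected for input abundance and mapped to Kd with protein pairs of known affinity run in the same pool. Each pool was mated in six replicate cultures.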

Parent scFv Ab-14: VH joined to VL by the linker GGGGSGGGGSGGGGS. Changes lie in the light chain CDRs alone.
VH: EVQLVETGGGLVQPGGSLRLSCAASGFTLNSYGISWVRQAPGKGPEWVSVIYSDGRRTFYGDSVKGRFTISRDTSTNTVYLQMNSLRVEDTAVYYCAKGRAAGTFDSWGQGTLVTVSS
VL: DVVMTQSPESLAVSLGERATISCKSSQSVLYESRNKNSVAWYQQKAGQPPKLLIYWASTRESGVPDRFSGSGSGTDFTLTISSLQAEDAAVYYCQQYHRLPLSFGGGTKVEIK

The parent's light chain CDRs are KSSQSVLYESRNKNSVA, WASTRES, QQYHRLPLS; each variant's own CDRs replace them letter for letter.
Variants here have more than six changes.
Each Kd is an estimate from the mating assay, the geometric mean of the replicates in which the pair was seen; lower is stronger.
An entry "no signal" has no value in the source: the pair was not observed among the diploids in any replicate. This suggests poor binding but is not conclusive.
Entries are sorted by rising average, undetected variants last.
Values of this round are not directly comparable with the first-round values of the same sequences.

The variant KLSNSYEYESRNMNSVA | NASTRLE | QQYHRLPLS showed 450 pM (6 of 6 replicates).
The variant KMQGSVMMLSRNDNSVA | DASTRES | QQYHRLPLS showed 740 pM (6 of 6 replicates).
The variant KISMTYRYESQAKNSIA | EMTTREE | QSYHRLPLS showed 1.0 nM (6 of 6 replicates).
The variant KVGQQFLQEQRNKNSVA | DASLRES | QQYHRLPLS showed 1.1 nM (6 of 6 replicates).
The variant KFQQSELYEKRNQNSVA | SASYRLS | QQYHRLPLS showed 1.2 nM (6 of 6 replicates).
The variant HLSMLTHVEMGTKNNVA | QMETREE | QQYDRLPLS showed 1.2 nM (6 of 6 replicates).
The variant KVVQSHDYEQRNKNSVA | HASTRCS | QQYHRLPLS showed 1.6 nM (6 of 6 replicates).
The variant NISYLQALSTNSVNNVA | QASVRAP | QYYQRLPLC showed 2.4 nM (6 of 6 replicates).
The variant TLGMQPTEMRDNKHAVA | DSNQRDR | QSYMRLPLS showed 2.6 nM (6 of 6 replicates).
The variant HITYGMNVAGRHSSSIA | QAETREK | QQYDRLPLI showed 4.0 nM (6 of 6 replicates).
The variant KISQTQEMELKNRNSVA | ELVTRMS | QQYNRLPLS showed 4.6 nM (6 of 6 replicates).
The variant HITYGMQVAGRHSSSIA | QAEERAK | QQYDRLPLS showed 5.2 nM (6 of 6 replicates).
The variant KLTHLSFVHDRMKNNVA | DLNRKAA | QQYNRLPLT showed 5.2 nM (6 of 6 replicates).
The variant KLPQATMQESVSKNSVA | ELSTRGS | QQYHRLPLS showed 6.5 nM (6 of 6 replicates).
The variant NVKAMLNMWARDIHNVA | HADERAV | QQYSRLPLG showed 6.6 nM (6 of 6 replicates).
The variant VMFMGLYWQNDEHYAIA | NVTMREK | QQYHRLPLQ showed 7.0 nM (6 of 6 replicates).
The variant KLMYLVLYESRNKNSVA | NASTRLQ | QQYHRLPLS showed 7.2 nM (6 of 6 replicates).
The variant QVTWRAFNGDSEMNNVA | DNVHAQY | QQYSRLPFT showed 14 nM (6 of 6 replicates).
The variant MISQLYNMGQFAINSVA | QAEERYN | QQYDRLPLV showed 15 nM (6 of 6 replicates).
The variant IISQSMLYESATHNSIA | QTQTREE | QQYHHLPLS showed 26 nM (6 of 6 replicates).
The variant MISQVMNTLTREGNNVA | DLEERER | QQYFRLPLS showed 28 nM (3 of 6 replicates).
The variant TLYGLSNSMSINKNSVA | EMTTREE | QQYDRLPLV showed 30 nM (6 of 6 replicates).
The variant KLSVSWYFESIEKNSVA | ERSTRES | QDYNRLPLS showed 30 nM (6 of 6 replicates).
The variant HITYGMMVVGRHSKSIA | QAETRAK | QQYDRLPLI showed 34 nM (6 of 6 replicates).
The variant FITGNSDNLYQDESSVA | ETNQIRE | QQYALLPLS showed 37 nM (2 of 6 replicates).
The variant HMSPSVLHESPNKNSVA | AASTRES | QQDHRLPLS showed 38 nM (6 of 6 replicates).
The variant TISQSVNMTSRGKNSVA | QAEMREA | QQYDRLPLS showed 46 nM (6 of 6 replicates).
The variant HMSQVTMYGYWNKNSVA | QTSTREE | QQYDHLPLS showed 91 nM (4 of 6 replicates).
The variant MLGMTVMQGMVSRNNVA | QEETRAN | QQYHHLPLS showed 120 nM (3 of 6 replicates).
The variant TIDDEMPSHGLKWNSIA | GVATVLQ | QQYHRLPLI showed 160 nM (6 of 6 replicates).
The variant KSAYSCLLESRNCNSVA | SASTREL | QQYHRLPLS showed 180 nM (6 of 6 replicates).
The variant FLHGNIEYGNGNWSAIA | ENTIRVD | QYYQHLPLA showed 370 nM (1 of 6 replicates).
The variant KVSQSVMVLQRNKNSVA | DNSTSGS | QQYHRLPLS showed 450 nM (1 of 6 replicates).
The variant MIYGAQRELGLMANSIA | DNVTRQD | QQYNRLPLS showed 2.2 µM (2 of 6 replicates).
The variant KLSQGTYGLTGHASNVA | HDEMRWE | QQYDKLPLI showed no signal (0 of 6 replicates).
The variant MLSQMWALGMKVSNSVA | QVSTRFE | QQYDRLPLI showed no signal (0 of 6 replicates).

The first 3 entries again:

CDR-L1	CDR-L2	CDR-L3	apparent Kd	detected
KLSNSYEYESRNMNSVA	NASTRLE	QQYHRLPLS	450 pM	6 of 6
KMQGSVMMLSRNDNSVA	DASTRES	QQYHRLPLS	740 pM	6 of 6
KISMTYRYESQAKNSIA	EMTTREE	QSYHRLPLS	1.0 nM	6 of 6

Nonspecific signal, from three strains lacking the peptide, appeared in 4% of pairings of all light chain designs, centred on 430 nM (5% of these signals below 38 nM); values are not corrected for it.
In the paper, a design with two or fewer of six values counts as a poor binder.

Source: Li et al. 2023 (doi:10.1038/s41467-023-39022-2), MIT Lincoln Laboratory and A-Alpha Bio; data file from the FLAb repository.